# Apparent affinities of Ab-91 variants for a coronavirus HR2 peptide

Data: MIT Lincoln Laboratory AlphaSeq set, Engelhart et al. 2022, doi:10.1038/s41597-022-01779-4, as distributed in FLAb.

Target: peptide PDVDLGDISGINAS, taken from heptad repeat 2 (HR2) of SARS-CoV-2 spike.

Ab-91 is the parent antibody, in scFv form: VL, then the linker GGGGSGGGGSGGGGS, then VH. The light chain is unchanged in all variants.
VL: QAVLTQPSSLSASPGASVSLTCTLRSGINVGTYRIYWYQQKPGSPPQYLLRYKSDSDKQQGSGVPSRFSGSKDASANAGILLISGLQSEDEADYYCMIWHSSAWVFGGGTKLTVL
VH: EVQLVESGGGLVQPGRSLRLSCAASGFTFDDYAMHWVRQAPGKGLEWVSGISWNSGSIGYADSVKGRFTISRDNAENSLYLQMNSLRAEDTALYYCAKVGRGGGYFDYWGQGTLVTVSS

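The starting antibody came from a phage panning campaign against this peptide. In library AAYL51, one, two or three CDR residues were substituted; doubles and triples were drawn at random. The assay is AlphaSeq: two haploid yeast populations carry antibody and antigen on their surface. The frequency of each diploid, read from paired DNA barcodes, reflects how well the two displayed proteins bind. Each replicate has its own calibration line, from reference interactions of the BCL2 family. Each pool was mated in three replicate cultures.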

Changes read parent residue, position, new residue, counted from the first residue of the VH shown.
Affinities are written as log10 Kd with Kd in nM; a lower number is a better binder.
Averages over replicates are reported, and they cover detected replicates only.
"n.d." means that the variant was in the library but no mating with the target was seen in that replicate; the authors take this as a sign of poor binding, and no number exists.
As a blank, each scFv also met three strains without target: over library AAYL51, 21% of these pairings were detected, typically at 4.54 and seldom below 3.26. The control count says in how many pairings with the empty strains this scFv gave a signal, with their mean in brackets.

changes,"replicates, log10 nM",mean log10 Kd (nM),control signals
Y60M+G102A+G104V,3.50 / 4.39 / 2.80,3.56,0/9
S57C+G59F+Y105F,4.14 / 4.79 / n.d.,4.46,3/9 (4.74)
I51G+V64L+R101H,3.65 / 3.98 / n.d.,3.81,3/9 (4.54)
G50P+W53C+S55V,n.d. / n.d. / n.d.,n.d.,2/9 (3.94)
N54M+G103I+F106D,3.97 / n.d. / n.d.,3.97,1/9 (3.16)
S55D+D62Y+V99T,3.29 / n.d. / n.d.,3.29,2/9 (3.61)
V64F+K65G+G102I,4.70 / n.d. / n.d.,4.70,4/9 (4.52)
Y60T+R101H+Y105P,n.d. / n.d. / n.d.,n.d.,1/9 (4.33)
F29S+G56A,n.d. / n.d. / n.d.,n.d.,0/9
T28D+Y105Q,n.d. / n.d. / n.d.,n.d.,0/9
G26Y+R101Y+Y108G,5.78 / n.d. / 4.18,4.98,3/9 (4.07)
W53D+G104E,n.d. / n.d. / n.d.,n.d.,2/9 (3.21)
S52L+I58E,4.60 / 4.59 / n.d.,4.59,4/9 (4.25)
M34R+S52F,n.d. / n.d. / n.d.,n.d.,2/9 (4.76)
A33R+N54R+Y105H,n.d. / n.d. / n.d.,n.d.,0/9
Y32W+G56S+Y105M,6.41 / 6.17 / n.d.,6.29,1/9 (5.06)
T28R+F29M+S57K,5.00 / 4.91 / 5.03,4.98,6/9 (4.90)
T28Q+A33W+S52W,4.89 / n.d. / n.d.,4.89,0/9
H35L+A61H+F106L,n.d. / n.d. / n.d.,n.d.,0/9
W53A+V99A+Y105G,n.d. / n.d. / n.d.,n.d.,3/9 (4.80)
S57F+Y60V+G103T,n.d. / n.d. / n.d.,n.d.,0/9
T28C+Y32M+A33Y,4.54 / n.d. / 4.86,4.70,1/9 (4.21)
D31W+S52R+A61L,4.46 / n.d. / n.d.,4.46,2/9 (4.85)
N54S+S55L+Y60W,5.00 / 5.70 / n.d.,5.35,7/9 (4.82)
S57G+G100S+G103D,5.24 / n.d. / n.d.,5.24,4/9 (4.55)
Y60G+D62I+G100K,n.d. / n.d. / n.d.,n.d.,2/9 (4.12)
G56C+V99D+Y108K,2.57 / 3.00 / 2.42,2.66,1/9 (3.93)
G26K+S55H,n.d. / n.d. / n.d.,n.d.,0/9
A33L+G103D+G104R,5.82 / 4.46 / 4.73,5.01,3/9 (3.84)
G56K+V64R+Y105R,n.d. / n.d. / n.d.,n.d.,1/9 (2.72)
S52A+S55M+S57P,n.d. / n.d. / n.d.,n.d.,0/9
N54S+Y108M,1.48 / 1.27 / 1.07,1.27,0/9
G26P+G56W+A61P,n.d. / n.d. / n.d.,n.d.,1/9 (3.50)
D62I+G104H,n.d. / n.d. / n.d.,n.d.,0/9
Y32I+V64C+K65Q,3.82 / n.d. / n.d.,3.82,1/9 (3.45)
G103Q,n.d. / 3.94 / n.d.,3.94,0/9
S55M+S63Y+R101A,2.13 / 3.00 / n.d.,2.57,0/9
G26A+Y60A+F106M,n.d. / n.d. / 4.13,4.13,3/9 (4.06)
G50K+K65E+V99H,n.d. / n.d. / n.d.,n.d.,0/9
T28K+S57M+D62T,0.98 / 1.58 / 0.63,1.06,0/9
H35K+A61T+K65R,5.02 / 4.45 / n.d.,4.73,7/9 (4.83)

The 4 strongest on average among those seen in every replicate, once more:

| changes | replicates, log10 nM | mean log10 Kd (nM) | control signals |
|---|---|---|---|
| T28K+S57M+D62T | 0.98 / 1.58 / 0.63 | 1.06 | 0/9 |
| N54S+Y108M | 1.48 / 1.27 / 1.07 | 1.27 | 0/9 |
| G56C+V99D+Y108K | 2.57 / 3.00 / 2.42 | 2.66 | 1/9 (3.93) |
| Y60M+G102A+G104V | 3.50 / 4.39 / 2.80 | 3.56 | 0/9 |

In this assay the parent's reference entry averaged 1.86; its copy inside this library read 0.88.